Measurements as given in PubChem BioAssay AID1007 (NMMLSC, 2008).
The entries are a selection whose mix differs from that of the whole data set. The source made the active and inactive calls. No stated cut-off is given here; in the data, active means inhibition above about 40%.

Protein sequences, listed by entry. Tags and fused reporters are not part of them.
UniProt Q07817, whole entry: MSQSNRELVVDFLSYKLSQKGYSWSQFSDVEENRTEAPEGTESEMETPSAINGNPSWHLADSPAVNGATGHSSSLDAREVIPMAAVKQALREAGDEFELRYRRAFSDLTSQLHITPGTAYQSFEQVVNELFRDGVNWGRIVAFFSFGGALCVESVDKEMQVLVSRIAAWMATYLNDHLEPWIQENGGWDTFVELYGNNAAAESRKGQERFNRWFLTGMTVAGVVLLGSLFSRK

Molecular target: Bcl-2-like protein 1 (Homo sapiens) (UniProt Q07817)
Assay: inhibitors of Bim-Bcl-XL binding, primary screen, biochemical, multiplexed, bead flow cytometry, human Bcl-XL (AID 1007)
Conditions: Bim peptide-Bcl-XL binding, fluorescence, at 10 µM, stronger effect = higher value

Row | SMILES | inhibition
1 | CC(C)(C)OC(=O)N1CCC(Nc2ccccc2)CC1 | inactive: -1%
2 | CCOc1ncccc1C(=O)NCC1(N2CCOCC2)CCCCC1 | inactive: 1%
3 | COc1cc(OC)cc(C(=O)NCC2(N3CCOCC3)CCCCC2)c1 | inactive: 1%
4 | CCC(CO)(C(=O)OC1CN2CCC1CC2)c1ccccc1 (stereo not given) | inactive: -4%
5 | Fc1ccccc1NC1CCN(Cc2ccccc2)CC1 | inactive: -4%
6 | CN(C)c1ccc(C(=O)NCC2(N3CCCCC3)CCCCC2)cc1 | inactive: 1%
7 | CCN1CCC(Nc2cccc(F)c2)CC1 | inactive: -3%
8 | N#Cc1ccc(C(=O)NCC2(N3CCCCC3)CCCCC2)cc1 | inactive: -3%
9 | c1ccc(CN2CCC(Nc3ccccc3)CC2)cc1 | inactive: -7%
10 | COc1ccc(C(=O)NCC2(N3CCOCC3)CCCCC2)cc1OC | inactive: -1%
11 | O=C(OC1CN2CCC1CC2)C1c2ccccc2C=Cc2ccccc21 (stereo not given) | inactive: 0%
12 | N/C(=N\O)c1c(N)no[n+]1[O-] | inactive: -1%
13 | CC(C)c1ccc(NC2CCN(C(=O)OC(C)(C)C)CC2)cc1 | inactive: 0%
14 | COc1ccc(CN(CCCl)CCCl)cc1Cl | inactive: -4%
15 | CN(C)c1cccc(C(=O)NCC2(N3CCCCC3)CCCCC2)c1 | inactive: -4%
16 | N#CC1(Nc2ccccc2)CCN(CCc2ccccc2)CC1 | inactive: -1%
17 | O=C(NCC1(N2CCCCC2)CCCCC1)c1cccc([N+](=O)[O-])c1 | inactive: -2%
18 | O=C(NCC1(N2CCOCC2)CCCCC1)c1cc(=O)[nH]c2ccccc12 | inactive: -8%
19 | CN1CCN(CCOC(=O)C(O)(c2ccccc2)c2ccccc2)CC1 | inactive: -6%
20 | COc1ccc(NC2CCN(C(=O)OC(C)(C)C)CC2)cc1 | inactive: -2%
21 | COc1ccc(NC2CCN(CCc3ccccc3)CC2)c(OC)c1 | inactive: -4%
22 | COc1ccc(C(=O)NCC2(N3CCCCC3)CCCCC2)c(OC)c1OC | inactive: 2%
23 | O=C(OC1CN2CCC1CC2)C1c2ccccc2Oc2ccccc21 (stereo not given) | inactive: -2%
24 | CCOC(=O)N1CCC(Nc2ccc(OC)cc2)CC1 | inactive: -3%
25 | O=C(NCC1(N2CCOCC2)CCCCC1)c1cc2ccccc2o1 | inactive: 5%
